## Binding of CDR-mutated scFvs to a peptide of the spike HR2 region

Target peptide (SARS-CoV-2 spike, HR2 region): PDVDLGDISGINAS

Parent: Ab-95, a human scFv built as VH, three GGGGS repeats, VL. Only the CDRs of the light chain vary.
VH: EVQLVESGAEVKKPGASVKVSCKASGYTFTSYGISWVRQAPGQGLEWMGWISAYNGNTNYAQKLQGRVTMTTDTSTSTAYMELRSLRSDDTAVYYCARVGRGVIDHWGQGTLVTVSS
VL: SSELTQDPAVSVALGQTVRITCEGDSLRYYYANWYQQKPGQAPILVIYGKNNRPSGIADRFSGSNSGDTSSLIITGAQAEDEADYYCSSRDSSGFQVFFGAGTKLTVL

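The starting antibody came from a phage panning campaign against this peptide. The library (AAYL52) carries one to three amino acid substitutions per variant, with no insertions or deletions. AlphaSeq pools MATa yeast showing the antibodies with MATalpha yeast showing the peptide. After mating in shaken culture at 30 °C for 16 h, diploids were selected and their barcode pairs sequenced. Each replicate has its own calibration line, from reference interactions of the BCL2 family. The assay was run in three technical replicates.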

Substitutions are numbered in sequence along the VL above, starting at 1 (not Kabat).
Values are log10 of the apparent Kd in nM; lower means stronger binding.
Replicates are averaged; those with no signal do not enter the mean.
An entry "nd" has no value in the source: the pair was not observed among the diploids in any replicate. This suggests poor binding but is not conclusive.
Parent in this assay: reference entry 2.31, copy in this library 2.25.
Background: pairings of library AAYL52 with three empty control strains gave a value in 28% of cases (median 3.91, 5th percentile 2.90). Values in that range, when seen in few replicates, are hard to tell from nonspecific mating.

changes	mean, log10 nM	replicates with signal
G24I R28P R53A	4.37	1 of 3
R28T G49R F95D	5.00	1 of 3
Y29P N51I F98K	3.78	3 of 3
E23W S26I D91V	5.25	1 of 3
E23Y L27H R28T	nd	0 of 3
S88W S89Y R90N	2.45	3 of 3
G24W D25V N51W	nd	0 of 3
Y29R Y30Q G49M	1.77	3 of 3
G24S N52R	3.02	2 of 3
R28L A32G S89E	5.35	1 of 3
Y30F S92D F98S	3.24	3 of 3
G49L D91L	nd	0 of 3
G94R F95Q V97K	nd	0 of 3
R28Y G49D D91T	2.35	3 of 3
R28F R53A Q96R	nd	0 of 3
D25N K50F F98R	3.40	3 of 3
D25V D91Q F95I	4.11	1 of 3
S55N D91Y F95H	2.92	3 of 3
K50L R53F S92N	nd	0 of 3
E23S S55M F98M	2.42	3 of 3
R28N S92V V97F	2.46	3 of 3
D25L S55E	1.63	3 of 3
Y29V G49A N51I	4.50	2 of 3
E23L Y31G N33Q	2.61	3 of 3
E23I N33G R53G	3.92	2 of 3
E23H L27S G49D	3.35	1 of 3
Y29W R53L S92Q	3.32	3 of 3
Y30N F95I	1.01	3 of 3
R28M Y29R S89G	2.79	2 of 3
K50P G94K	1.59	3 of 3
E23L D91T G94V	3.63	2 of 3
Y30H Y31F	1.25	3 of 3
Q96L V97F F98V	4.22	1 of 3
G24R S26D R53I	4.26	1 of 3
N33K S89M	4.06	1 of 3
G24N Y29H Y31F	2.67	3 of 3
E23A P54L S89I	2.99	1 of 3
D25H R28H Y31K	3.69	2 of 3
P54E S93E Q96M	3.25	1 of 3

The remaining entries, values ahead:

mean, log10 nM	replicates with signal	changes
4.45	2 of 3	Y29H S89Y S92M
1.28	3 of 3	Y30W Y31E Q96N
4.08	2 of 3	G24C Y29L A32E
2.69	3 of 3	S88A Q96M
4.27	2 of 3	K50E R53D S89L
3.73	2 of 3	E23N D25F R90E
3.18	2 of 3	E23I V97N F98E
3.45	1 of 3	K50M S88C R90H
1.16	3 of 3	G24A R28Q Y30Q
4.71	2 of 3	N33D N51K R53L
3.47	3 of 3	S26V K50Q R53S
3.72	2 of 3	S26F A32T D91I
3.40	3 of 3	L27H Q96M V97E
3.90	2 of 3	S26L P54M V97N
3.29	3 of 3	S26H N52G P54V
nd	0 of 3	N33P P54W S93P
4.09	1 of 3	G24H R28C R53M
3.38	3 of 3	D25L S26I Y31G
nd	0 of 3	Y30I A32N N51P
2.29	3 of 3	Y31A K50I S89L
2.74	3 of 3	D25G G94V F95H
0.81	3 of 3	D25E Y31P
2.99	3 of 3	D25G L27G Y30I
nd	0 of 3	D25P G49C R53K
2.96	3 of 3	S88C S93A
nd	0 of 3	S55Y S93N F98N
3.97	3 of 3	R28I S55W V97I
3.00	1 of 3	Y31L R53I F98P
3.00	3 of 3	A32T R53M F95E
3.29	1 of 3	E23D L27K S55E
4.06	1 of 3	N51M S93V
3.92	3 of 3	L27T S89N F95A
2.95	3 of 3	G49N P54A
3.75	2 of 3	N51L G94Y
3.59	2 of 3	G49W S93D
3.59	2 of 3	R53L D91H G94R
3.34	3 of 3	D25G D91R F95N
3.77	1 of 3	K50R S89I S92N
1.59	3 of 3	E23M S92E

11 of these entries, quoted again:

changes	mean, log10 nM	replicates with signal
Q96L V97F F98V	4.22	1 of 3
S88W S89Y R90N	2.45	3 of 3
D25N K50F F98R	3.40	3 of 3
Y29V G49A N51I	4.50	2 of 3
D25G G94V F95H	2.74	3 of 3
S26F A32T D91I	3.72	2 of 3
N51M S93V	4.06	1 of 3
R28I S55W V97I	3.97	3 of 3
D25G L27G Y30I	2.99	3 of 3
D25L S26I Y31G	3.38	3 of 3
E23M S92E	1.59	3 of 3

From the AlphaSeq antibody data of Engelhart et al. 2022 (doi:10.1038/s41597-022-01779-4), copy in the FLAb collection.